The assay addresses High affinity choline transporter 1 (Homo sapiens) (UniProt Q9GZV3). Briefly: human choline transporter potentiators, potency – cell-based, 10-point CRC, membrane potential dye, dose response (AID 602376). The settings on record: HEK293-CHT, choline-induced membrane potential dye, cells express CHT LV-AA mutant; at 67 µM (top of the series).

Amino acid sequences for entries named in this document (tags omitted). A change or cut given only in a name is not applied to a line headed by its entry.
UniProt Q9GZV3: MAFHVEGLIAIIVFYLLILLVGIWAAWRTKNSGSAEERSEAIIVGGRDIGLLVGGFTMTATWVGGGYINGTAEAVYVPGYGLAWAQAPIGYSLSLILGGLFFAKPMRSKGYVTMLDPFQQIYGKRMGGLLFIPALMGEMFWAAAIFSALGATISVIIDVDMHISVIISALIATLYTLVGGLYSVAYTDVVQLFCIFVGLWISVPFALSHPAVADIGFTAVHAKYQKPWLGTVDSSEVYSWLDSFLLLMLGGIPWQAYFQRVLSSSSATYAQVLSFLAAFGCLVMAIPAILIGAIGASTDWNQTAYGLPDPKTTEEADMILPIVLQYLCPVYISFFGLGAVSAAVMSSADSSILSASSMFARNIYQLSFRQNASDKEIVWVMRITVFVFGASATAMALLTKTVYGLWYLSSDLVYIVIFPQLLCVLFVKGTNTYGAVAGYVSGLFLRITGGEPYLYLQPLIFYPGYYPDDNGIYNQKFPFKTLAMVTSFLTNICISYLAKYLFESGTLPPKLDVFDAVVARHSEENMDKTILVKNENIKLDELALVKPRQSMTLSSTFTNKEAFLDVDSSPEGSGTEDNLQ

The entries are a selection whose mix differs from that of the whole data set. Measured potencies and affinities stand elsewhere. Inconclusive results are not listed. Activity calls are given as the source filed them.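 Rule for the calls: active = raises choline transporter activity at one or more tested doses and gives a fitted dose-response curve; inconclusive = no clear call, values can overlap the other calls; inactive = no choline transporter activation at any dose, or no curve.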

In the case of `CC1CCC(C(C)C)C(OP(=O)(Nc2ccccn2)c2ccccc2)C1` (stereo unspecified), the percent activation is inactive: 71.4%.

The values above are taken from PubChem BioAssay AID602376 (Johns Hopkins Ion Channel Center, 2012).
